Columns and labels:
[1] = molecular target: T1, BM3 A82F/F87V double mutant (DM) heme domain (Priestia megaterium, UniProt P14779, A83F/F88V); type: binding, Bacillus megaterium
T1 construct: The BM3 heme domain proteins (WT and the DM A82F/F87V variant) used in this study were expressed as described in our previous studies; made in house; host or cells: E. coli BL21 (DE3)
Excerpt: (§1) This leads to dioxygen (O2) binding to heme iron and to the progression of the P450 catalytic cycle that leads to monooxygenation of the substrate. […] P450 UV-visible binding assays and other spectroscopic studies using azoles are often hindered by the low solubility of many of these drugs. […] The azoles used range widely in size and structure, and contain either an imidazole or a triazole functional group (or two triazole groups in the case of fluconazole). […] Spectral binding data were fitted using hyperbolic (Michaelis-Menten)[30] or tight-binding (Morrison)[31] equations, or by using the Hill function[32] in cases where there was a clear sigmoidal dependence of heme absorbance change on azole drug concentration.
(§2) Experiments were performed using a Cary 50 UV-Visible spectrophotometer (Agilent Technologies Ltd). WT and DM heme domains at concentrations of ~2–4 μM were used, and binding titrations were done by the addition of small (typically 0.2–0.4 μL) volumes of azole ligand stocks (1, 10 or 30 mM, to minimize amounts of solvent carrier used) to a 1 mL heme domain sample in a quartz cuvette. An extinction coefficient of 95 mM^−1 cm^−1 was used for the low-spin forms of the WT and DM heme domains. […] Azole drugs were obtained from Merck Chemicals (Nottingham, UK). All azole compounds used in these and other experiments done in this manuscript were sourced from Sigma Aldrich (Cambridge, UK).
(§3) Data were processed by the subtraction of the spectrum of each successive ligand-bound form (from a specific titration set) from the spectrum of the ligand-free enzyme. This produced a set of difference spectra (for each particular azole titration), from which wavelengths associated with the absorbance minimum (Amin) and maximum (Amax) were readily identified. For each titration point, an absorbance difference value was calculated as Amax minus Amin, using the same wavelength pair throughout an individual experiment. These values were then plotted against the relevant azole ligand concentrations used. […] Assays were done using 25 mM KPi (pH 7) at a constant temperature of 30 °C.

Chains of the proteins cited; added tags and fusions are not shown. Residues count along the entry.
UniProt P14779, 2-472 A83F/F88V: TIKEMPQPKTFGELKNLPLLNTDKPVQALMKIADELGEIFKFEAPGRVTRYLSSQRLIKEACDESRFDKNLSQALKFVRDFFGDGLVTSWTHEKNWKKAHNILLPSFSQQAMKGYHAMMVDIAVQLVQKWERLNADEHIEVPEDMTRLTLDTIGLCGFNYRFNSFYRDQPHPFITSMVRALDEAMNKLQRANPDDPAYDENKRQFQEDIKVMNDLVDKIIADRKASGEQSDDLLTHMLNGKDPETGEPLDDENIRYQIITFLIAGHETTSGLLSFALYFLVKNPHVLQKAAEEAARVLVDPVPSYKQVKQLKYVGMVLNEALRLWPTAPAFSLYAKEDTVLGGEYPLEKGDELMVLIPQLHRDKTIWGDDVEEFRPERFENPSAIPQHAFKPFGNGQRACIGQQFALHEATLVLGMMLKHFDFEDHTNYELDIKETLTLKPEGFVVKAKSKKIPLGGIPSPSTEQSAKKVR
UniProt P14779, 2-472: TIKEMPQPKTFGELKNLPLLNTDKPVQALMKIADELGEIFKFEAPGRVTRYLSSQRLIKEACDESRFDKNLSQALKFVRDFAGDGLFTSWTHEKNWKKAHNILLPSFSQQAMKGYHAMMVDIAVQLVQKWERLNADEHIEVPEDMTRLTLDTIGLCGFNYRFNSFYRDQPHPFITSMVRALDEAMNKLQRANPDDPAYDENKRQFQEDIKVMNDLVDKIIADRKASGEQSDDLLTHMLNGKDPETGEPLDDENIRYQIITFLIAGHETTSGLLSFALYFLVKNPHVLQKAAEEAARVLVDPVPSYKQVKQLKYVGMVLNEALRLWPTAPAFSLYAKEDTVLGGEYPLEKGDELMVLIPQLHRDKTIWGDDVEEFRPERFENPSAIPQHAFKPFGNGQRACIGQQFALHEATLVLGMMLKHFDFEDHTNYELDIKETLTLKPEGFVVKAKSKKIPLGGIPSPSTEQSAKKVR

WT BM3 heme domain = molecular target: T2, WT BM3 heme domain (Priestia megaterium, UniProt P14779); type: binding, Bacillus megaterium
T2 construct: The BM3 heme domain proteins (WT and the DM A82F/F87V variant) used in this study were expressed as described in our previous studies; made in house; host or cells: E. coli BL21 (DE3)
Excerpt: as §1, §2, §3

[2] = maximal peak-minus-trough value divided by P450 Soret peak value

Clc1ccc(COC(Cn2ccnc2)c2ccc(Cl)cc2Cl)cc1 (centres unmarked) [Econazole nitrate]
Delta Abs Peak (wavelength maximum of absorbance difference spectrum) [1]: 435 nm
Delta Abs Trough (wavelength minimum of absorbance difference spectrum) [1]: 414 nm
Delta Abs/Soret Peak [1, 2]: 0.47
Soret Shift (final Soret wavelength at apparent saturation) ([1]; starting wavelength 418 nm): 423 nm
Delta Abs Peak (wavelength maximum of absorbance difference spectrum) (WT BM3 heme domain): 434 nm
Delta Abs Trough (wavelength minimum of absorbance difference spectrum) (WT BM3 heme domain): 413 nm
Delta Abs/Soret Peak (WT BM3 heme domain; [2]): 0.27
Soret Shift (final Soret wavelength at apparent saturation) (WT BM3 heme domain; starting wavelength 418 nm): 421 nm

Reference: publication PMC6367340, “Novel insights into P450 BM3 interactions with FDA-approved antifungal azole drugs” (Scientific Reports, 2019)
